Measurements published in patent publication US20090263341A1, “SOFT ANTICHOLINERGIC ESTERS” (priority 2005, published 2009).

Test system: guinea pig ileum (M3 muscarinic receptors)
Assay: Guinea pig ileum contraction assay, pA2 against carbachol
Settings: carbachol as agonist, 4-6 strips, mean ± SD

C[N@@+]1(CC(=O)[O-])CC[C@@H](OC(=O)[C@@](O)(c2ccccc2)C2CCCC2)C1 gave a pA2 of 5.14 ± 0.38.
For C[N+]1(CC(=O)[O-])CCC(OC(=O)C(O)(c2ccccc2)C2CCCC2)C1 (centres unmarked), the pA2 was 6.42 ± 0.30.
C[N@+]1(CC(=O)[O-])CC[C@H](OC(=O)[C@](O)(c2ccccc2)C2CCCC2)C1 was tested, and the pA2 was 7.15 ± 0.12.
In the case of C[N@@+]1(CC(=O)[O-])CC[C@@H](OC(=O)[C@](O)(c2ccccc2)C2CCCC2)C1, the pA2 is reported as 6.32 ± 0.23 and the pA2 (listed as 2R1′R3′R-GA) is reported as 6.32.
C[N+]1(CC(=O)[O-])CCC(OC(=O)[C@](O)(c2ccccc2)C2CCCC2)C1 (some centres unmarked) was tested, and the pA2 was 7.20 ± 0.19.
Compound C[N@@+]1(CC(=O)[O-])CC[C@H](OC(=O)[C@@](O)(c2ccccc2)C2CCCC2)C1 has a pA2 of under 4.
COC(=O)C[N+]1(C)CCC(OC(=O)[C@](O)(c2ccccc2)C2CCCC2)C1.[Br-] (some centres unmarked) gave a pA2 of 8.31 ± 0.05.
For C[N@+]1(CC(=O)[O-])CC[C@@H](OC(=O)[C@](O)(c2ccccc2)C2CCCC2)C1, the pA2 was 7.45 ± 0.21.
Compound C[N@+]1(CC(=O)[O-])CC[C@H](OC(=O)[C@@](O)(c2ccccc2)C2CCCC2)C1 has a pA2 of 5.03 ± 0.26.
COC(=O)C[N+]1(C)CCC(OC(=O)C(O)(c2ccccc2)C2CCCC2)C1.[Br-] (racemic) showed a pA2 of 7.90 ± 0.13.
